Experimental data: ChEMBL document CHEMBL3862026, “Synthesis and biological evaluation of ranitidine analogs as multiple-target-directed cognitive enhancers for the treatment of Alzheimer's disease” (Bioorg Med Chem Lett, 2016)

Protein sequences, listed by entry. Tags and fused reporters are not part of them.
UniProt P81908, whole entry: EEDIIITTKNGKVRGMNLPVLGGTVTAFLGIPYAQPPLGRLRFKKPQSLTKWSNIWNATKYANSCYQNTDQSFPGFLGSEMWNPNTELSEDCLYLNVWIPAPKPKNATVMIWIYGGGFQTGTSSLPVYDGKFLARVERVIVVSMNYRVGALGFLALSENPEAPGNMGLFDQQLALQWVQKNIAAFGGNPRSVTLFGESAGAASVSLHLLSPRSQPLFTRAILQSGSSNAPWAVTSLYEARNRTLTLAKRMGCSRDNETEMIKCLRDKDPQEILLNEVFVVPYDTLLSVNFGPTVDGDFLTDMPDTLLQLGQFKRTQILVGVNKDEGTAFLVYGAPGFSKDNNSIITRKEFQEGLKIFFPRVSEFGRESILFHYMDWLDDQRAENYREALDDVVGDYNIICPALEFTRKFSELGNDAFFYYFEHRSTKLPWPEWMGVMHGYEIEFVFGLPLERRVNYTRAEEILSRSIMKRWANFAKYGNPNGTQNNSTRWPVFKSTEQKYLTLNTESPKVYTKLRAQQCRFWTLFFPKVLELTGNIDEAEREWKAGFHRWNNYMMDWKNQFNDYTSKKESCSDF

Target: Cholinesterase (Equus caballus, UniProt P81908)
Experiment: Inhibition of equine serum BuChE using butyrylthiocholine as substrate preincubated for 8 mins followed by substrate addition by Ellman's method

With `CN(C)Cc1ccc(CSCCNc2nnccc2[N+](=O)[O-])o1` the IC50 was 10 µM.
